Tests used:
[1] = tested on: 1K1C model animals; experiment: plasma PTH reduction after 30-minute IV infusion in 1K1C model animals; assay type: in vivo; conditions: 3 mg/kg
Excerpt: These compounds include (i) Ac-crrrr-NH2 (SEQ ID NO:4), (ii) Ac-crrrrr-NH2 (SEQ ID NO:5), (iii) Ac-crrrrrr-NH2 (SEQ ID NO:6), and (iv) Ac-crrrrrrr-NH2 (SEQ ID NO:7). In previous studies, the compounds identified as SEQ ID NO:4, SEQ ID NO:5, SEQ ID NO:6 and SEQ ID NO:7 were each administered by a 30-minute IV infusion to 1K1C model animals and effected a reduction in plasma PTH levels as a percent of the pre-dosing (baseline) level. […] These latter two compounds produced a mean PTH reduction of ˜40% and 60% at the 24 hour time point, respectively. It should be noted that the compounds in this study were administered at the same mg/kg dose but, due to differences in molecular weight, a different number of moles of each compound was actually dosed.

[2] = target: T1, human CaSR (Homo sapiens, UniProt P41180); experiment: IP1 production in HEK293 cells that express the human CaSR; assay type: cell-based; conditions: HEK 293 cells
T1 construct: expressed in transfected cells; host or cells: HEK293
T1 sequence (P41180 20-1078): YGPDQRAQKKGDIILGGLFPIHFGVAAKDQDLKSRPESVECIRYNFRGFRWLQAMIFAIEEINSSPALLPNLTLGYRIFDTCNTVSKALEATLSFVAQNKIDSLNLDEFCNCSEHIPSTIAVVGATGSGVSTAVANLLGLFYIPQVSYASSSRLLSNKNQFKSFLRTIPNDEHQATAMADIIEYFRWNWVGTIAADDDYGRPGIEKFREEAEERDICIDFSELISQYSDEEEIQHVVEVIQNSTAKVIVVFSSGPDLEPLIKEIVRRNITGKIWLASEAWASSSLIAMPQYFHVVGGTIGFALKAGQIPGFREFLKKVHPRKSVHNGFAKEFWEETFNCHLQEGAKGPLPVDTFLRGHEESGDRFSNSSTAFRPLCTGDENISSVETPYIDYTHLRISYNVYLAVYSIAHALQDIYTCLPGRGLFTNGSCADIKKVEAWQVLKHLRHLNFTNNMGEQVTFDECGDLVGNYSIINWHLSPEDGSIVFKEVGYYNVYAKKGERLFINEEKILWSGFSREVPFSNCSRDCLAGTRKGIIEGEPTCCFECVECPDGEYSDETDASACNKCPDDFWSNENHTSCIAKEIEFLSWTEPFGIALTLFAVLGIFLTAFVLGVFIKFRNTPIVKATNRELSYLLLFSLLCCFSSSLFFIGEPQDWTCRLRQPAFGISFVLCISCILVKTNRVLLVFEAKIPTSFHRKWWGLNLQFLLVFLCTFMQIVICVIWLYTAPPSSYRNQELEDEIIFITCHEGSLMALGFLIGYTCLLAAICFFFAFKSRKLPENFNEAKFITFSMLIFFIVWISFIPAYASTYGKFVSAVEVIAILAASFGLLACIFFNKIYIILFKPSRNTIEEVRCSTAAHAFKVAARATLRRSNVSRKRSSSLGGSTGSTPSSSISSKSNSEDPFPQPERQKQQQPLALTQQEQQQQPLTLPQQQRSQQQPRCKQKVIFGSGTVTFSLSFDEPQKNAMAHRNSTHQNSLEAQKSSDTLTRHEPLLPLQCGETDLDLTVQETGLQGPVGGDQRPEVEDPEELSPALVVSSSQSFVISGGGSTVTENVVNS

| Compound | effect on plasma PTH [1] | decrease in potency relative to Ac-carrrar-NH2 (SEQ ID NO:26) [2] |
| --- | --- | --- |
| CC(=O)N[C@H](CS)C(=O)N[C@H](CCCNC(=N)N)C(=O)N[C@H](CCCNC(=N)N)C(=O)N[C@H](CCCNC(=N)N)C(=O)N[C@H](CCCNC(=N)N)C(N)=O [SEQ ID NO: 4, Ac-crrrr-NH2] | significant drop in plasma PTH | – |
| CC(=O)N[C@H](CS)C(=O)NCC(=O)N[C@H](CCCNC(=N)N)C(=O)N[C@H](CCCNC(=N)N)C(=O)N[C@H](CCCNC(=N)N)C(=O)NCC(=O)N[C@H](CCCNC(=N)N)C(N)=O [SEQ ID NO: 42, Ac-cGrrrGr-NH2] | – | < 8 fold |
